Results on three molecules are retold here after patent US20110059095A1.

Chains of the proteins cited; added tags and fusions are not shown. Residues count along the entry.
UniProt P55085, 26-397 G138A limits assumed: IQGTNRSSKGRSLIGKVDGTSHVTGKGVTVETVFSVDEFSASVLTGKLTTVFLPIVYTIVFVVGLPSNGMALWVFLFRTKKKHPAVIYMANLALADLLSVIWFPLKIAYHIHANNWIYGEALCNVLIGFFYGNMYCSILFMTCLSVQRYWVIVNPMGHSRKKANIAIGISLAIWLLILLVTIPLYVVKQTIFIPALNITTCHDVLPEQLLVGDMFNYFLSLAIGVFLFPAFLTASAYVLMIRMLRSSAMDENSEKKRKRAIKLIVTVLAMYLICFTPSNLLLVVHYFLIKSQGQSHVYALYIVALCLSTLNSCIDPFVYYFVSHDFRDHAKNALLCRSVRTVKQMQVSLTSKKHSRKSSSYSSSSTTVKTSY

The target of assay [1] is T1, Peptide B (human PAR-2), N-terminal biotinylated (Human).
T1 sequence (peptide, N-terminal biotin via G4S linker): GGGGSSLIGKVDGTSHVTG
The assay can be described thus: peptide ELISA. Background: An ELISA detects its analyte on a solid surface through an enzyme-linked reagent.

The target in assay [2] is T2, Peptide B (human PAR-2), C-terminal biotinylated (Human).
T2 sequence (peptide, C-terminal biotin via G4S linker): SLIGKVDGTSHVTGGGGGS
The experiment in a line: peptide ELISA.

Assay [3] addresses full length human PAR-2 (human) (UniProt P55085). The assay can be described thus: cell ELISA, 10 ug/ml antibody.

B1: H2M610N (antibody, V domains shown)
VH: EVQLVESGGNLVQPGRSLRLSCAASGFTFDDYAMHWVRQAPGKGLEWVSGISWNSGSRGYADSVKGRFTISRDNAKNSLYLQMNSLRTEDTAFYYCTKEDEAFDYWGQGTLVTVSS
VL: DIVMTQTPLSSPVTLGQPASISCRSSQSLVHSDRNTYLSWLQQRPGQPPRLLIYKISNRFSGVPDRFSGSGAGTDFTLKISRVEAEDVGFYYCMQATQFPYTFGQGTKLQIN
As for B1, the OD450 in assay [1] and in assay [2] was 0 to 0.09 od each time. Further, in assay [3], the A450 ratio (293/D9/hPAR-2rec to 293/D9 cells) was 1.66.

B2: H1M612N (antibody, V domains shown)
VH: EVQLVESGGGLVQPGRSLRLSCAASGFTFDDYAMHWVRQAPGKGLEWVSGITWNSGNMAYADSVKGRFTISRDNAKNSLYLQMNSLRAEDTALYYCAKENWAFDYWGQGTRVIVSS
VL: DIVMTQTPLSSPVTLGQPASISCRSSHSLVHSDGNTYLSWLQQRPGQPPRLLIYKISNRFSGVPDRFSGSGAGTDFTLKISRVEAEDVGVYFCMQATQFPYTFGQGTKLEIK
Regarding B2, in assay [3], the A450 ratio (293/D9/hPAR-2rec to 293/D9 cells) came to 1.9.

B3: H2M614N (antibody, V domains shown)
VH: EVQLVESGGGLVQPGRSLRLSCAASGFTFDDYAMHWVRQVPGKGLEWVSGITWNSGSIDYADSVKGRFTISRDNAKNSLYLQMNSLRAEDTAFYYCVKEDEAFDYWGQGTLVTVSS
VL: DIVMTQTPLSSPVTLGQPASISCRSSQSLVHSDGNTYLSWLQQRPGQPPRLLIYKISNRFSGVPDRISGSGAGTDFTLKISRVEAEDVGVYYCMQATQFPYTFGQGTKLEIK
Consider B3, for which the A450 ratio (293/D9/hPAR-2rec to 293/D9 cells) in assay [3] stood at 1.17.
